Laboratory results from PubChem BioAssay (NCI).
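Following 48 hours of exposure in 96-well plates, responses at five concentrations were used to interpolate endpoints linearly. Here, GI50 denotes the concentration required for 50% inhibition of growth. At the TGI there is no net growth.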

Tests used:
Test in all cases: NCI-60 cell line screen, 48 h
MDA-MB-435 = test system: MDA-MB-435
SF-268 CNS = test system: SF-268 CNS
SN12C renal = test system: SN12C renal
OVCAR-3 ovarian = test system: OVCAR-3 ovarian
TK-10 renal = test system: TK-10 renal
SK-MEL-2 melanoma = test system: SK-MEL-2 melanoma
HCC-2998 colon = test system: HCC-2998 colon
T-47D breast = test system: T-47D breast
MDA-MB-231 breast = test system: MDA-MB-231 breast
U251 CNS = test system: U251 CNS
NCI-H522 lung = test system: NCI-H522 lung
BT-549 breast = test system: BT-549 breast
786-0 renal = test system: 786-0 renal
ACHN renal = test system: ACHN renal
COLO 205 colon = test system: COLO 205 colon
PC-3 prostate = test system: PC-3 prostate
HCT-15 colon = test system: HCT-15 colon
HCT-116 colon = test system: HCT-116 colon
UACC-257 melanoma = test system: UACC-257 melanoma
DU-145 prostate = test system: DU-145 prostate
RXF 393 renal = test system: RXF 393 renal
CCRF-CEM leukemia = test system: CCRF-CEM leukemia
A549 NSCLC = test system: A549 NSCLC
SF-539 CNS = test system: SF-539 CNS
NCI-H226 lung = test system: NCI-H226 lung
SNB-75 CNS = test system: SNB-75 CNS
OVCAR-8 ovarian = test system: OVCAR-8 ovarian
UACC-62 melanoma = test system: UACC-62 melanoma
MCF7 breast = test system: MCF7 breast
HL-60(TB) leukemia = test system: HL-60(TB) leukemia
KM12 colon = test system: KM12 colon
SNB-19 CNS = test system: SNB-19 CNS
M14 melanoma = test system: M14 melanoma
IGROV1 ovarian = test system: IGROV1 ovarian
MDA-N = test system: MDA-N
SK-MEL-28 melanoma = test system: SK-MEL-28 melanoma
SW-620 colon = test system: SW-620 colon
SR leukemia = test system: SR leukemia
OVCAR-4 ovarian = test system: OVCAR-4 ovarian
OVCAR-5 ovarian = test system: OVCAR-5 ovarian
SK-MEL-5 melanoma = test system: SK-MEL-5 melanoma
HS 578T breast = test system: HS 578T breast
MOLT-4 leukemia = test system: MOLT-4 leukemia
RPMI-8226 leukemia = test system: RPMI-8226 leukemia
SF-295 CNS = test system: SF-295 CNS
MALME-3M melanoma = test system: MALME-3M melanoma
EKVX NSCLC = test system: EKVX NSCLC
UO-31 renal = test system: UO-31 renal
SK-OV-3 ovarian = test system: SK-OV-3 ovarian
HOP-62 NSCLC = test system: HOP-62 NSCLC
CAKI-1 renal = test system: CAKI-1 renal
LOX IMVI melanoma = test system: LOX IMVI melanoma
A498 renal = test system: A498 renal
K-562 leukemia = test system: K-562 leukemia
NCI/ADR-RES ovarian = test system: NCI/ADR-RES ovarian
NCI-H460 lung = test system: NCI-H460 lung
NCI-H322M lung = test system: NCI-H322M lung
NCI-H23 lung = test system: NCI-H23 lung
HT29 colon = test system: HT29 colon
HOP-92 NSCLC = test system: HOP-92 NSCLC

Structure (SMILES): C[As](C)Sc1ccccc1C(=O)O
- GI50 (MDA-MB-435): 0.0894 µM
- TGI (MDA-MB-435): 0.358 µM
- GI50 (SF-268 CNS): 0.511 µM
- TGI (SF-268 CNS): 2.83 µM
- GI50 (SN12C renal): 0.319 µM
- TGI (SN12C renal): 1.34 µM
- GI50 (OVCAR-3 ovarian): 0.181 µM
- TGI (OVCAR-3 ovarian): 0.753 µM
- GI50 (TK-10 renal): 0.116 µM
- TGI (TK-10 renal): 0.665 µM
- GI50 (SK-MEL-2 melanoma): 0.175 µM
- TGI (SK-MEL-2 melanoma): 0.516 µM
- GI50 (HCC-2998 colon): 0.653 µM
- TGI (HCC-2998 colon): 2.29 µM
- GI50 (T-47D breast): 0.046 µM
- TGI (T-47D breast): 1.79 µM
- GI50 (MDA-MB-231 breast): 0.456 µM
- TGI (MDA-MB-231 breast): 6.42 µM
- GI50 (U251 CNS): 0.482 µM
- TGI (U251 CNS): 2.23 µM
- GI50 (NCI-H522 lung): 0.031 µM
- TGI (NCI-H522 lung): 0.111 µM
- GI50 (BT-549 breast): 0.569 µM
- TGI (BT-549 breast): 1.84 µM
- GI50 (786-0 renal): 0.336 µM
- TGI (786-0 renal): 1.26 µM
- GI50 (ACHN renal): 0.21 µM
- TGI (ACHN renal): 1.24 µM
- GI50 (COLO 205 colon): 0.42 µM
- TGI (COLO 205 colon): 1.7 µM
- GI50 (PC-3 prostate): 3.76 µM
- TGI (PC-3 prostate): > 100 µM
- GI50 (HCT-15 colon): 0.0966 µM
- TGI (HCT-15 colon): 1.24 µM
- GI50 (HCT-116 colon): 0.332 µM
- TGI (HCT-116 colon): 1.48 µM
- GI50 (UACC-257 melanoma): 0.366 µM
- TGI (UACC-257 melanoma): 2.86 µM
- GI50 (DU-145 prostate): 0.23 µM
- TGI (DU-145 prostate): 0.71 µM
- GI50 (RXF 393 renal): 0.233 µM
- TGI (RXF 393 renal): 1.39 µM
- GI50 (CCRF-CEM leukemia): 2.78 µM
- TGI (CCRF-CEM leukemia): 14.5 µM
- GI50 (A549 NSCLC): 0.67 µM
- TGI (A549 NSCLC): 3.12 µM
- GI50 (SF-539 CNS): 0.052 µM
- TGI (SF-539 CNS): 0.228 µM
- GI50 (NCI-H226 lung): 0.28 µM
- TGI (NCI-H226 lung): 1.21 µM
- GI50 (SNB-75 CNS): 0.661 µM
- TGI (SNB-75 CNS): 1.56 µM
- GI50 (OVCAR-8 ovarian): 0.289 µM
- TGI (OVCAR-8 ovarian): 1.13 µM
- GI50 (UACC-62 melanoma): 0.278 µM
- TGI (UACC-62 melanoma): 1.52 µM
- GI50 (MCF7 breast): 0.225 µM
- TGI (MCF7 breast): 0.823 µM
- GI50 (HL-60(TB) leukemia): 0.151 µM
- TGI (HL-60(TB) leukemia): 2.49 µM
- GI50 (KM12 colon): 0.984 µM
- TGI (KM12 colon): 11.3 µM
- GI50 (SNB-19 CNS): 1.14 µM
- TGI (SNB-19 CNS): 6.64 µM
- GI50 (M14 melanoma): 0.295 µM
- TGI (M14 melanoma): 1.1 µM
- GI50 (IGROV1 ovarian): 0.252 µM
- TGI (IGROV1 ovarian): 0.688 µM
- GI50 (MDA-N): 0.119 µM
- TGI (MDA-N): 1.32 µM
- GI50 (SK-MEL-28 melanoma): 0.135 µM
- TGI (SK-MEL-28 melanoma): 0.497 µM
- GI50 (SW-620 colon): 0.439 µM
- TGI (SW-620 colon): 6.45 µM
- GI50 (SR leukemia): 0.0861 µM
- TGI (SR leukemia): 1.01 µM
- GI50 (OVCAR-4 ovarian): 0.314 µM
- TGI (OVCAR-4 ovarian): 2.03 µM
- GI50 (OVCAR-5 ovarian): 0.246 µM
- TGI (OVCAR-5 ovarian): 1.64 µM
- GI50 (SK-MEL-5 melanoma): 0.282 µM
- TGI (SK-MEL-5 melanoma): 0.84 µM
- GI50 (HS 578T breast): 0.267 µM
- TGI (HS 578T breast): 0.948 µM
- GI50 (MOLT-4 leukemia): 0.136 µM
- TGI (MOLT-4 leukemia): 32.3 µM
- GI50 (RPMI-8226 leukemia): 11.5 µM
- TGI (RPMI-8226 leukemia): 31.5 µM
- GI50 (SF-295 CNS): 2.61 µM
- TGI (SF-295 CNS): 8.8 µM
- GI50 (MALME-3M melanoma): 0.0709 µM
- TGI (MALME-3M melanoma): 0.305 µM
- GI50 (EKVX NSCLC): 0.485 µM
- TGI (EKVX NSCLC): 3.95 µM
- GI50 (UO-31 renal): 0.0931 µM
- TGI (UO-31 renal): 0.557 µM
- GI50 (SK-OV-3 ovarian): 1.98 µM
- TGI (SK-OV-3 ovarian): 11.4 µM
- GI50 (HOP-62 NSCLC): 1.08 µM
- TGI (HOP-62 NSCLC): 4.87 µM
- GI50 (CAKI-1 renal): 0.0756 µM
- TGI (CAKI-1 renal): 0.472 µM
- GI50 (LOX IMVI melanoma): 0.227 µM
- TGI (LOX IMVI melanoma): 1.02 µM
- GI50 (A498 renal): 0.32 µM
- TGI (A498 renal): 1.94 µM
- GI50 (K-562 leukemia): 0.358 µM
- TGI (K-562 leukemia): 42.8 µM
- GI50 (NCI/ADR-RES ovarian): 0.233 µM
- TGI (NCI/ADR-RES ovarian): 0.673 µM
- GI50 (NCI-H460 lung): 2.79 µM
- TGI (NCI-H460 lung): 11.3 µM
- GI50 (NCI-H322M lung): 2.19 µM
- TGI (NCI-H322M lung): 7.43 µM
- GI50 (NCI-H23 lung): 0.182 µM
- TGI (NCI-H23 lung): 2.59 µM
- GI50 (HT29 colon): 0.253 µM
- TGI (HT29 colon): 0.922 µM
- GI50 (HOP-92 NSCLC): 2.9 µM
- TGI (HOP-92 NSCLC): 13.9 µM
